Measurements from patent publication US20260382572A1, “TREATMENT OF FRONTOTEMPORAL DEMENTIA OR FRONTOTEMPORAL LOBAR DEMENTIA” (published 2026).

How the values were obtained:
BV2 cells = test: Nitric oxide (NO) production in LPS-exposed BV2 cells (DAF); conditions: LPS 24 h
Experimental: FIG. 1. Compound 1 reduces the inflammatory response against LPS in vitro. (A) Nitric oxide (NO) production in BV2 cells detected by DAF 24 h after LPS exposure and normalized by cell viability measured by MTT (n=9). (B) qRT-PCR of TNFα (n=9) in BV2 cells after 24 h LPS exposure. Sulforaphane (Sfn) was used as a positive control.
Nitric oxide (NO) detection in the mouse microglial cell line BV2 was evaluated by using the fluorescent probe 4-amino-5-methylamino-2′,7′-difluorofluorescein diacetate (DAF) with excitation and emission wavelengths of 495 nm of 515 nm, respectively according to the manufacturer's instructions. Fluorescence results were divided by cell viability (measured as MTT reduction) and normalized to basal condition. Results were normalized respect to basal condition.

[1] = tested on: hyperphosphorylated tau (hTauP301L); test: hTauP301L FTD model, adult mice: tau soluble and insoluble in sarkosyl by western blot; conditions: oral 50 mg/kg/day 35 days
Experimental: FIG. 8. Compound 1 reduces insoluble forms of hyperphosphorylated tau species in adult mice with hTauP301L tauopathy after 35 days oral administration (50 mg/kg/day). (A). Representative images of WB against AT8 and (B) AT180 antibodies of sarkosyl solule and insoluble protein species. Quantification of sarkosyl soluble (n=10) (C) and insoluble species (D) using AT8 antibody (n=10). Quantification of sarkosyl soluble (n=10) (E) and insoluble species (F) using AT180 antibody (n=10).
In vivo hTau301L model was induced by stereotaxic injection of AAV-hTauP301L (AAV-hTau) particles as described in [Luengo, Enrique et al. “Implication of type 4 NADPH oxidase (NOX4) in tauopathy.” Redox biology vol. 49 (2022): 102210. doi:10.1016/j.redox.2021.102210]. Control animals were injected with AAV-GFP. Evaluation of hyperphosphorylated tau in sarkosyl soluble and insoluble fractions; microgliosis; AT8 and AT180 by immunofluorescence; and cognitive test were performed as described previously [Luengo, Enrique et al. “Implication of type 4 NADPH oxidase (NOX4) in tauopathy.” Redox biology vol. […]
Example 2.5. […] After 35 days treatment, hyperphosphorylated tau levels were evaluated by immunofluorescence and by WB in soluble and insoluble in sarkosyl fractions. […]
After 35 days of treatment, monomeric and oligomeric forms of tau, soluble and insoluble in sarkosyl, were analysed by western blot. […]

[2] = tested on: hyperphosphorylated tau (hTauP301L); test: hTauP301L FTD model, aged mice: hyperphosphorylated tau by immunofluorescence in hippocampus; conditions: 35 days
Experimental: (§1) FIG. 10. Compound 1 reduces hyperphosphorylated tau species and improves cognitive behaviour in aged (16-18 months old) mice with hTauP301L tauopathy after days oral administration (50 mg/kg/day). (A). Representative images of hyperphosphorylated tau intensity measured by AT8 and AT180 antibodies in three different regions of the hippocampus (GD, CA3 and CA1) (n=12). (B) Quantification AT8 intensity, normalized to CA3 intensity of Sham animals. (C) Quantification of AT180 intensity, normalized to CA3 intensity of Sham animals. (D) Experimental protocol of T-maze alternation test and (E) Object Location test (OLT). (F) Average of the percentage of success in seven independent attempts (n=6).
Immunofluorescence labelling in in vitro and in vivo samples was performed as described in [Luengo, Enrique et al. “Implication of type 4 NADPH oxidase (NOX4) in tauopathy.” Redox biology vol. 49 (2022): 102210. doi:10.1016/j.redox.2021.102210].
In vivo hTau301L model was induced by stereotaxic injection of AAV-hTauP301L (AAV-hTau) particles as described in [Luengo, Enrique et al. “Implication of type 4 NADPH oxidase (NOX4) in tauopathy.” Redox biology vol. 49 (2022): 102210. doi:10.1016/j.redox.2021.102210]. Control animals were injected with AAV-GFP. Evaluation of hyperphosphorylated tau in sarkosyl soluble and insoluble fractions; microgliosis; AT8 and AT180 by immunofluorescence; and cognitive test were performed as described previously [Luengo, Enrique et al. “Implication of type 4 NADPH oxidase (NOX4) in tauopathy.” Redox biology vol. 49 (2022): 102210. doi:10.1016/j.redox.2021.102210].
Oral administration of Compound 1 at different dosages (20 mg·kg^−1 and 50 mg·kg^−1) was administered embedded in gelatine. The compound was given in a mixture of 10% gelatine from porcine skin and 10% sucralose in water, heated in a microwave oven. […]
(§2) Example 2.6. […] 35 Days of treatment with a single oral dose of Compound 1 at 50 mg/kg reduced hyperphosphorylated tau levels induced by hTauP301L, measured by AT8 and AT180 antibodies in DG, CA3 and CA1 regions of the hippocampus (FIG. 10A-C). […]

[3] = tested on: aged mice with hTauP301L tauopathy; test: hTauP301L FTD model, aged mice: Object location test (OLT); conditions: aged (16-18 months) mice; oral 50 mg/kg, 35 days
Experimental: as §1
In vivo hTau301L model was induced by stereotaxic injection of AAV-hTauP301L (AAV-hTau) particles as described in [Luengo, Enrique et al. “Implication of type 4 NADPH oxidase (NOX4) in tauopathy.” Redox biology vol. 49 (2022): 102210. doi:10.1016/j.redox.2021.102210]. Control animals were injected with AAV-GFP. […]
as §2

[4] = Plasma pharmacokinetics, intraperitoneal and oral administration; conditions: male C57BL/6 mice; for AUClast / Cmax / T1/2 / Tmax: plasma
From the text: Example 3.4. Pharmacokinetic studies by intraperitoneal and oral administration.

[5] = aged (16-18 months) mice, oral 50 mg/kg, DG, CA3 and CA1

Question: Which “nitric oxide (NO) production at 10 μM” value (BV2 cells; 10 μM) does the source give for `COc1ccc2c(c1)CC(c1c[nH]c3ccc(OC)cc13)N2` (stereo not drawn) here?
Answer: reduced to basal levels

Question: And the “nitric oxide (NO) production, reduction” value (BV2 cells; concentration series)?
Answer: concentration-dependent reduction of nitric oxide (NO)

Question: What about the “insoluble tau monomers (sarkosyl), AT180 (FIG. 8F)” value [1] of the same molecule?
Answer: significant reduction of insoluble monomers

Question: What about the “insoluble tau oligomers (sarkosyl), AT180 (FIG. 8F)” value [1] of the same molecule?
Answer: tendency to reduce insoluble oligomers

Question: What about the “hyperphosphorylated tau levels, AT8” value [2, 5] of the same molecule?
Answer: reduced hyperphosphorylated tau levels

Question: What about the “hyperphosphorylated tau levels, AT180” value [2, 5] of the same molecule?
Answer: reduced hyperphosphorylated tau levels

Question: What about the “hyperphosphorylated tau (summary)” value ([2]; young and aged subjects, 50 mg/kg oral once a day) of the same molecule?
Answer: significant reduction of hyperphosphorylated tau

Question: And the “spatial memory loss, OLT” value [3]?
Answer: prevented

Question: What about the “time of peak plasma concentration” value ([4]; i.p. 20 mg/kg) of the same molecule?
Answer: 15 min

Question: And the “time of peak plasma concentration” value ([4]; oral 50 mg/kg)?
Answer: 30 min

Question: And the AUClast ([4]; IP 20 mg/kg)?
Answer: 11697.95 ng·h/mL

Question: What about the Cmax ([4]; IP 20 mg/kg) of the same molecule?
Answer: 10931.75 ng/mL

Question: What about the T1/2 ([4]; IP 20 mg/kg) of the same molecule?
Answer: 3.74 h

Question: And the Tmax ([4]; IP 20 mg/kg)?
Answer: 15 min

Question: What about the AUClast ([4]; PO 50 mg/kg) of the same molecule?
Answer: 4531.29 ng·h/mL

Question: What about the Cmax ([4]; PO 50 mg/kg) of the same molecule?
Answer: 3019.19 ng/mL

Question: And the T1/2 ([4]; PO 50 mg/kg)?
Answer: 8.27 h

Question: And the Tmax ([4]; PO 50 mg/kg)?
Answer: 30 min
